Reference: US6673802B2, “Compounds specific to adenosine A3 receptor and uses thereof” (OSI Pharmaceuticals, Inc., priority 2000, dated 2004)

Amino acid sequences for entries named in this document (tags omitted).
UniProt P0DMS8, whole entry: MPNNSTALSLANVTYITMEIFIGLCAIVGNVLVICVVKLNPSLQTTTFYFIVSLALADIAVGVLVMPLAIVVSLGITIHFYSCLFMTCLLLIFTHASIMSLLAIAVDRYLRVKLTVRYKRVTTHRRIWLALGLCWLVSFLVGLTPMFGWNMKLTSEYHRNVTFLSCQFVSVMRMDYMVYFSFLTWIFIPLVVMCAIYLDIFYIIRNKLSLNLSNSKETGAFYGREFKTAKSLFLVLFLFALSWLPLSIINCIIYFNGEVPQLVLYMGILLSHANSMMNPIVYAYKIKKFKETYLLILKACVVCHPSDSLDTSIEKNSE

How the values were obtained:
[1] = biological target: human A3 receptor subtype (Homo sapiens, UniProt P0DMS8); experiment: Adenosine 3 receptor competition radioligand binding ([125I]AB-MECA, HEK293 membranes); details: Table 13
[2] = biological target: human A2a receptor subtype (Homo sapiens, UniProt P29274); experiment: Adenosine 2a receptor subtype competition radioligand binding ([3H]CGS-21680, HEK293 membranes); details: Table 13; probably % activity @ 10 μM (footnote 8)

SMILES	A3 % activity @ 10 μM [1]	A2a, value printed as % [2]
O[C@H]1CC[C@H](Nc2nc(-c3ccncc3)nc3[nH]ccc23)CC1	54%^8	–
Cc1[nH]c2nc(-c3ccccc3)nc(NCCNC(=O)C3(N)CC3)c2c1C	–	65%
